## scFv variants of Ab-14 (light chain) against a SARS-CoV-2 spike peptide

Binding partner: SARS-CoV-2 spike HR2 peptide, sequence PDVDLGDISGINAS.

Parent: Ab-14, a human scFv built as VH, three GGGGS repeats, VL. Only the CDRs of the light chain vary.
VH: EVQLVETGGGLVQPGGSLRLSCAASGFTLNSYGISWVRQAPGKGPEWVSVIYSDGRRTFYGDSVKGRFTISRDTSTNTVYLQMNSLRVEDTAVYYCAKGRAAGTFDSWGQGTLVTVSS
VL: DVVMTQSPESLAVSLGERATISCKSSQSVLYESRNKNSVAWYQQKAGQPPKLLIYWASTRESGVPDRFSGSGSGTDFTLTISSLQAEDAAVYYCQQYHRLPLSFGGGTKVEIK

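Phage display of a naive human antibody library on the peptide gave the parent. This is the validation round: designs drawn from the data on random variants, tested in the same kind of assay. Group labels follow the data file (Ctrl: baseline library sampled from a position-specific scoring matrix, with some repeated check sequences; GP: Gaussian process model; GPLM: also part of the Gaussian process libraries; HC: hill climbing; Gen: genetic algorithm; a sequence that several methods proposed may carry one label only). Affinity was read by AlphaSeq, a pooled yeast mating assay with surface-displayed partners. Binding brings cells together so that they mate, and sequencing counts the barcode pairs among the diploids. A regression on co-assayed BCL2-family reference pairs converts the normalised counts of each replicate to an apparent Kd. Each pool was mated in six replicate cultures.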

Variants are written as CDR1, CDR2 and CDR3 of the light chain (limits as in the source). Parent: KSSQSVLYESRNKNSVA, WASTRES, QQYHRLPLS. Scale: log10 of Kd in nM, estimated from mating counts; low values are strong binders. A pair that was not seen in that replicate is written "n.d."; this usually means weak binding, but a binder can also be missed. A sequence that the file lists under several names has all its replicates listed entry by entry, parted by semicolons. In the paper, a design with two or fewer of six values counts as a poor binder. The range of this assay differs from that of the first round, and the authors advise against merging the two. Nonspecific signal, from three strains lacking the peptide, appeared in 4% of pairings of all light chain designs, centred on 2.64 (5% of these signals below 1.59); values are not corrected for it. For each scFv, signals with the empty controls are counted beside the result, with their mean in brackets.

| # | CDR-L1 | CDR-L2 | CDR-L3 | group | log10 Kd (nM) by replicate | empty controls |
|---|---|---|---|---|---|---|
| 1 | KSSFSVLYESRNKNSVA | KASTRES | QTYHRLPLS | Ctrl | n.d. / 2.02 / n.d. / n.d. / 2.01 / n.d. | 0/18 |
| 2 | KSSQSVLYESRNKNSVA | NASTRDS | QQYMRLPLS | Ctrl | 0.07 / 0.02 / -0.04 / -0.13 / -0.22 / -0.08 | 0/18 |
| 3 | KVGQSVLYESRNQNSVA | WASTRES | QQYHGLPLS | Ctrl | 1.35 / 1.73 / 1.55 / 2.98 / 1.47 / 2.38 | 0/18 |
| 4 | KISQSVLYYSRRKNSVA | QASTRES | QQYHRLPLS | Ctrl | 1.27 / 1.40 / 1.61 / 1.36 / 2.54 / 1.55 | 0/18 |
| 5 | KSSQSVLVESRNKNSVA | DASTRES | QQYHRLPLS | Ctrl+GPLM_HC | 0.09 / 0.20 / 0.19 / 0.13 / 0.02 / 0.34; 0.15 / 0.06 / -0.16 / -0.03 / 0.04 / 0.10 | 3/36 (2.61) |
| 6 | KSRQSGVGESRNKSSVA | QASTRES | QQYHRLPLS | Ctrl | n.d. / 2.24 / 1.83 / 1.27 / 1.13 / n.d. | 1/18 (2.05) |
| 7 | KLSQSVLYESRNKNSVA | SASTRES | QQYHRLPLS | Ctrl+GP_Gen | -0.39 / -0.39 / -0.59 / -0.67 / -0.40 / -0.14; 0.16 / 0.11 / -0.12 / -0.23 / -0.04 / 0.12 | 1/36 (2.84) |
| 8 | KSSQSELYESRNKNSVA | WASTRES | QQYHRTPLS | Ctrl | 1.25 / 2.20 / 2.65 / 1.73 / 2.31 / 1.19 | 2/18 (3.30) |
| 9 | KTSQSVLYESDNKNSVA | WASTRES | QQYHRLPLS | Ctrl | 1.81 / 0.77 / n.d. / n.d. / 0.78 / 0.97 | 0/18 |
| 10 | KSSQSVLYESFNKNSVA | NASTRES | QQYHRLPLS | Ctrl | 1.10 / 1.01 / 0.98 / 0.54 / 1.11 / 1.21 | 0/18 |
| 11 | KNSQSVVYDSRNKNSVA | GATTRES | QQYHRLPLS | Ctrl | -0.17 / -0.01 / -0.12 / -0.31 / -0.39 / -0.07 | 1/18 (4.01) |
| 12 | KSSQSVLYESSNNNSVA | WAFTRES | QQYHRLPLS | Ctrl | n.d. / 2.59 / n.d. / n.d. / n.d. / n.d. | 1/18 (1.67) |
| 13 | KSSQSLLYESRNKNSVA | AASTRES | QQYHRLPLS | Ctrl | 0.08 / 0.91 / -0.25 / -0.09 / 0.01 / 0.47 | 0/18 |
| 14 | TSSQSVLYESRNKNSVA | WASERMS | QQYHRLPLS | Ctrl | 3.94 / 1.09 / 1.65 / 1.92 / 1.05 / 1.68 | 1/18 (3.45) |
| 15 | KSNQSVLYESRNCNSVA | WASTRES | QQYHRLPLS | Ctrl | n.d. / 2.66 / n.d. / 3.83 / 3.62 / 2.59 | 0/18 |
| 16 | KSSQSVLYESKNKNSVA | GASTRES | QQYHRLPLS | Ctrl | n.d. / n.d. / 4.35 / n.d. / n.d. / n.d. | 0/18 |
| 17 | KSSQSELYESRNKNDVA | WASKRES | QQYHRLPLS | Ctrl | 1.51 / 0.94 / 0.39 / 4.30 / 1.25 / 1.49 | 1/18 (1.79) |
| 18 | KSSQGVLYFSRNKNSVA | WASTRES | QQYHRLPLS | Ctrl | n.d. / n.d. / n.d. / n.d. / n.d. / n.d. | 0/18 |
| 19 | KSEQSCLYESRDKNSVA | WASTRES | QQYHRLALS | Ctrl | n.d. / n.d. / n.d. / n.d. / n.d. / n.d. | 0/18 |
| 20 | KISQSVLYESRLKNSVA | HASTRES | QQYHRLPLS | Ctrl | 0.32 / 0.23 / 0.15 / 0.21 / 0.25 / 0.41 | 2/18 (3.30) |
| 21 | KSSQSVLGESRNKNSVA | RASTRES | QQYHRLPLS | Ctrl | n.d. / 1.96 / 1.46 / n.d. / 2.08 / 3.12 | 0/18 |
| 22 | KSSQSVRYESRNKNSVA | MASTREF | YQVHRLPLS | Ctrl | n.d. / n.d. / n.d. / n.d. / n.d. / n.d. | 0/18 |
| 23 | KSSQSVLYESFNKNSVA | GASTRES | QQYHRLPLS | Ctrl | 0.37 / 0.63 / 0.37 / 0.24 / 0.64 / 0.66 | 0/18 |
| 24 | KSSQSTPMESRNKNNVA | WASTRES | QQYHRLPLS | Ctrl | n.d. / n.d. / n.d. / n.d. / n.d. / n.d. | 0/18 |
| 25 | KSSQSVDYESRNKNSVA | TASTRES | SQYHRLPLS | Ctrl | n.d. / 2.18 / n.d. / n.d. / n.d. / n.d. | 0/18 |
| 26 | KSSQHVLYESNNKNSVA | HASTRES | QQYHRLPLS | Ctrl | 0.93 / 0.73 / 1.58 / 1.22 / 0.97 / 1.50 | 0/18 |
| 27 | KHSQSVLLENRNKNSVA | RASTREC | QQYHHLPLF | Ctrl | 2.51 / 2.52 / 1.20 / 2.27 / 1.56 / 1.19 | 0/18 |
| 28 | KSSQSVLYESRLKNSVA | NASTRES | QQYHRLPLS | Ctrl | 0.17 / 0.31 / 0.35 / 0.06 / 0.15 / 0.46 | 0/18 |
| 29 | KVSQSVPYESRNKNSVA | WASTRER | QQYHRLPTS | Ctrl | 1.91 / 1.73 / 3.15 / 2.46 / 4.13 / 3.10 | 0/18 |
| 30 | KSSQSVLYETRNKNSVA | GASTRES | PQYHGLPLW | Ctrl | n.d. / n.d. / n.d. / n.d. / n.d. / n.d. | 0/18 |
| 31 | KSSQHVGYESRNKNSVA | WASTREF | QQYHRLPLS | Ctrl | n.d. / 1.93 / 1.73 / 2.20 / 2.77 / 2.55 | 2/18 (3.01) |

Picked from the list: the 5 lowest averages where every replicate gave a value.

CDR-L1	CDR-L2	CDR-L3	group	log10 Kd (nM) by replicate	empty controls
KLSQSVLYESRNKNSVA	SASTRES	QQYHRLPLS	Ctrl+GP_Gen	-0.39 / -0.39 / -0.59 / -0.67 / -0.40 / -0.14; 0.16 / 0.11 / -0.12 / -0.23 / -0.04 / 0.12	1/36 (2.84)
KNSQSVVYDSRNKNSVA	GATTRES	QQYHRLPLS	Ctrl	-0.17 / -0.01 / -0.12 / -0.31 / -0.39 / -0.07	1/18 (4.01)
KSSQSVLYESRNKNSVA	NASTRDS	QQYMRLPLS	Ctrl	0.07 / 0.02 / -0.04 / -0.13 / -0.22 / -0.08	0/18
KSSQSVLVESRNKNSVA	DASTRES	QQYHRLPLS	Ctrl+GPLM_HC	0.09 / 0.20 / 0.19 / 0.13 / 0.02 / 0.34; 0.15 / 0.06 / -0.16 / -0.03 / 0.04 / 0.10	3/36 (2.61)
KSSQSLLYESRNKNSVA	AASTRES	QQYHRLPLS	Ctrl	0.08 / 0.91 / -0.25 / -0.09 / 0.01 / 0.47	0/18

Source: Li et al. 2023 (doi:10.1038/s41467-023-39022-2), MIT Lincoln Laboratory and A-Alpha Bio; data file from the FLAb repository.